Experimental data taken from ChEMBL document CHEMBL4813951 (Eur J Med Chem, 2021).

Chains of the proteins cited; added tags and fusions are not shown.
UniProt P25021, whole entry: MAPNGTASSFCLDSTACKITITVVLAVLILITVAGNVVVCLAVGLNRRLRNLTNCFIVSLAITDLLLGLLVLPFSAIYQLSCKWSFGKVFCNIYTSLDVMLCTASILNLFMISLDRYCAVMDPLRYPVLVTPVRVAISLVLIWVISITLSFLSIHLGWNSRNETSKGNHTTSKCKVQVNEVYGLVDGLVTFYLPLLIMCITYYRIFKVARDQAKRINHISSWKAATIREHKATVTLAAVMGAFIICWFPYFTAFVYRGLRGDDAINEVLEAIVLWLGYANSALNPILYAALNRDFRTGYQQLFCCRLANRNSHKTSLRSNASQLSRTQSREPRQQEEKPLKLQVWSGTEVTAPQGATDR
UniProt P47747, whole entry: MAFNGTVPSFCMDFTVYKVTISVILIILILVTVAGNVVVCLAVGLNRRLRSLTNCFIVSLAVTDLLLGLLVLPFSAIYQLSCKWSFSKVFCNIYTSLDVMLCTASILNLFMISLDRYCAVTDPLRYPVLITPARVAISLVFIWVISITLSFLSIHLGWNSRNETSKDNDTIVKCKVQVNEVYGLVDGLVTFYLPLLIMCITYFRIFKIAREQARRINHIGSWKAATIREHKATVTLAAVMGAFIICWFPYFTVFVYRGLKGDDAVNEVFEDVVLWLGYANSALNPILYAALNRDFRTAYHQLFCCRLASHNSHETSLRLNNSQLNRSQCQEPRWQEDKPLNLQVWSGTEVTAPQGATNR

target: T1, Histamine H2 receptor (Homo sapiens, UniProt P25021); assay: Agonist activity at human histamine H2 receptor expressed in HEK293T cells co-expressing ELucC assessed as intrinsic activity at >= 30 uM by beta arrestin2 recruitment assay relative to histamine; format: functional, cell-based; conditions: filed as agonist, dose microM >=30

In order of rising Intrinsic activity:
1. Cc1ccc(CC(C)CNC(=O)/N=C(\N)NCCCc2sc(N)nc2C)cc1 (centres undefined)  0.1
2. CCC(CNC(=O)/N=C(\N)NCCCc1sc(N)nc1C)c1ccccc1 (centres undefined)  0.16
3. Cc1nc(N)sc1CCCN/C(N)=N/C(=O)NCC(C)CC1CCCCC1 (centres undefined)  0.22

target: T1, Histamine H2 receptor; assay: Agonist activity at human histamine H2 receptor expressed in sf9 insect cell membranes co-exprssing GsalphaS assessed as intrinsic activity at >=30 uM incubated for 90 mins [35S]GTPgammaS binding based microbeta scintillation counting analysis relative to histamine; format: functional; conditions: Membrane, filed as agonist, dose microM >=30, time 90.0 min

`Cc1ccc(CC(C)CNC(=O)/N=C(\N)NCCCc2sc(N)nc2C)cc1` (centres undefined) was tested, and the Intrinsic activity was 0.68.

target: Histamine H2 receptor (Cavia porcellus) (UniProt P47747); assay: Agonist activity at guinea pig right atrium histamine H2 receptor assessed as intrinsic activity incubated for 30 mins in presence of cimetidine relative to histamine; format: functional, tissue-based; conditions: Right cardiac atrium, filed as agonist

In order of rising Intrinsic activity:
1. CCCCCNC(=O)/N=C(\N)NCCCc1sc(N)nc1C  0.78
2. Cc1nc(N)sc1CCCN/C(N)=N/C(=O)NC(C)c1cccc(F)c1 (centres undefined)  0.85
3. Cc1nc(N)sc1CCCN/C(N)=N/C(=O)NC(c1ccccc1)c1ccccc1  0.9
4. Cc1nc(N)sc1CCCN/C(N)=N/C(=O)N[C@H](C)c1ccccc1  0.95
5. Cc1nc(N)sc1CCCN/C(N)=N/C(=O)N[C@@H](C)c1ccccc1  1.08
